{
  "source": "patent US12702478B2",
  "about": "“Devices, methods, and compositions for thermal acceleration and drug delivery” (Rhode Island Hospital, priority 2015, dated 2026)",
  "key": {"[1]": {"conditions": "cited from earlier work"}, "[2]": {"assay": "Dielectric properties by open-ended coaxial measurement", "assay_type": "physicochemical", "from_the_text": "Materials or formulations with a high dipole moment as potential thermal accelerants can be expressed by the ε″ and σ values for thermal ablation (radiofrequency, microwave, irreversible electroporation. A person skilled in the art will recognize that in order to show the capacity of a material, or formulations of a material, quantitatively as a thermal accelerant, the concept of permittivity can be employed in lieu of, or in addition to, evaluation of dipole moment. For example, materials can be tested using an electromagnetic wave of sinusoidal frequency ω, which is directed at a subject sample by an open-ended coaxial cable of a low-power oscillator. Measurement of the magnitude and phase of the fraction of the wave which is reflected allows deduction of the complex permittivity of the tissue.\nThe complex permittivity is defined as ε*=ε′−jε″, where ε′ is the real permittivity and ε″ is the imaginary permittivity. […] The real permittivity is also known as the dielectric constant. The imaginary permittivity is also called the loss factor and can be written ε″=σ/(ωε0), so as to incorporate the electrical conductivity of the material, […]. The quantity a directly scales the power deposited per unit volume according to the following expression, ARD=σ|E|^2, where ARD is Absorption Rate Density (watt m^−3), […] is electrical conductivity (ohm^−1 m^−1), and JEJ is the magnitude of the electrical field (volt m^−1) produced by the microwave antenna at the point of interest in the tissue."}},
  "note": "Like-named read-outs stand apart in the source and are kept apart here.",
  "data": [
    {"substance": "albumin: serum albumin, globular blood protein, ca. 66-67 kDa; carrier polymer of the TA", "values": [
      {"measurement": "coagulation (denaturation) temperature", "setting": "[1]; pH 3.5", "value": 46, "unit": "°C"},
      {"measurement": "coagulation (denaturation) temperature", "setting": "[1]; pH 7.4", "value": 62, "unit": "°C"},
      {"measurement": "Dielectric constant (ε′)", "setting": "[2]; 915 MHz", "value": 30.7},
      {"measurement": "electrical conductivity (σ)", "setting": "[2]; 915 MHz", "value": 0.52, "unit": "mho/m"},
      {"measurement": "Dielectric constant (ε′)", "setting": "[2]; 2450 MHz", "value": 37.9},
      {"measurement": "electrical conductivity (σ)", "setting": "[2]; 2450 MHz", "value": 1.12}
    ]}
  ]
}
